ChEMBL document CHEMBL4007444, “Development of New Benzenesulfonamides As Potent and Selective Nav1.7 Inhibitors for the Treatment of Pain” (J Med Chem, 2017)
Calls of active or inactive are those of the source. The rule behind the calls is not given here.

System: Mus musculus
Test: Antinociceptive activity in CD-1 mouse assessed as reduction in formalin-stimulated paw flinching at 30 mg/kg, po administered 30 mins prior to formalin challenge measured up to 45 mins
Assay type: functional, organism-based

For `CN1C(C)(C)CC(Nc2cc(F)c(S(=O)(=O)Nc3nccs3)cc2Cl)CC1(C)C`, the Activity was “inactive”.
